According to PubChem BioAssay AID624371 (The Scripps Research Institute Molecular Screening Center, 2012):
This is a selection; strong and weak results do not stand in their true shares. Active and inactive are the calls of the source.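 Rule for the calls: active = mean inhibition above the low-control mean inhibition plus three low-control SD (cut at about 11% in these data); inactive = the rest.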

assay: beta-lactamase reporter inhibitors in CHO cells, confirmation, artefact control for NOD2-RIPK2 interaction inhibitor project, cell-based, CHO-K1 CMV-bla, CCF4 FRET, fluorescence (AID 624371); conditions: CCF4 FRET ratio, counterscreen, at 4.98 µM, stronger effect = higher value;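 note: 0% = DMSO only wells and 100% = clavulanate high control wells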

| SMILES | inhibition |
| --- | --- |
| C[N+]1=C2C=CC=CC=C2SC12C([N+](=O)[O-])=CC([N+](=O)[O-])=C[C-]2[N+](=O)[O-] (configuration not stated) | inactive: -2.08% |
| CN(C)C(=O)c1cc([N+](=O)[O-])cc2c1-c1c(cc([N+](=O)[O-])cc1[N+](=O)[O-])C2=O | active: 15.7% |
